Experimental data reported in US5648458A, “Peptides and compounds that bind to ELAM-1” (Affymax Technologies N.V., priority 1995, dated 1997).

Biological target: T1, immobilized ELAM-1 (Homo sapiens, UniProt P16581)
T1 construct: truncated form comprising the complete extracellular domain (amino acids 1 through 554); made in house
T1 sequence (P16581 22-554): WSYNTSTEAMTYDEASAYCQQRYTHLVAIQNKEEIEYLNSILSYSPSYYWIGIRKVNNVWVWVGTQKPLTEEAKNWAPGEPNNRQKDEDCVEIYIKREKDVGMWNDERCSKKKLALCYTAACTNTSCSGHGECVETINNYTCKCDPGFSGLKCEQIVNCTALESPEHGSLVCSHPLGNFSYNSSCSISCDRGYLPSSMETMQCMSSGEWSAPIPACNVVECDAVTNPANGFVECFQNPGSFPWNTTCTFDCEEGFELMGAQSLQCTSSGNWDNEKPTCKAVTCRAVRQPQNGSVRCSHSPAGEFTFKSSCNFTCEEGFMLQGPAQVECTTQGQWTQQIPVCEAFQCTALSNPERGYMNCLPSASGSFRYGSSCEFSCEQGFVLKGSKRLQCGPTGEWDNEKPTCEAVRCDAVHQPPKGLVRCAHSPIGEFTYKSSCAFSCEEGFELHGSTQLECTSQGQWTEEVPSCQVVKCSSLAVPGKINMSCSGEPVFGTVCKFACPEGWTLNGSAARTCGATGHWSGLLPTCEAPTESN
Assay type: cell-based
Settings: compound at about 200 μM; FIG. 1
Protocol: By comparing test wells with control wells (no receptor), one can determine whether a peptide binds to ELAM-1 specifically. Peptides found to bind specifically to ELAM-1 were then synthesized as the free peptide (no phage) and tested in an HL60 cell adhesion competition assay. The competition assay was carried out similarly to the ELISA, except that labeled HL60 cells were added in addition to the peptide (the control wells were typically of at least two types: (1) no immobilized ELAM-1; and (2) no peptide; see the Examples). Peptides that block the binding of labeled HL60 cells to ELAM-1 are preferred compounds of the invention. […] The assay requires HL60 cells labeled with tritiated thymidine. […] The cells are then placed in a T75 flask and incubated at 37° C. for 24 hours. The cells are then collected by centrifugation, washed twice with RPMI/HEPES/0.1% FCS, and resuspended in the same solution at a concentration of about one to two million cells per mL. About 100 μL of this cell preparation are used per well of a 96-well microtiter dish in the assay. […] After this incubation, aliquots were removed from each well and placed in scintillation vials; scintillation fluid was added to each vial; and the radioactivity in each aliquot was quantitated by LS counting. […]

monofucosyl monosialyllactose [SLe^x]
blocking of HL60 cell binding, relative to binding in the absence of added compound: did not exhibit significant blocking
